Reference: ChEMBL document CHEMBL3352539 (J Med Chem, 2014)

The chains behind the UniProt entries cited, without tags or fusion partners. Where a name states a change or a piece, a line headed by the entry shows the natural chain unless it says otherwise.
UniProt P53779: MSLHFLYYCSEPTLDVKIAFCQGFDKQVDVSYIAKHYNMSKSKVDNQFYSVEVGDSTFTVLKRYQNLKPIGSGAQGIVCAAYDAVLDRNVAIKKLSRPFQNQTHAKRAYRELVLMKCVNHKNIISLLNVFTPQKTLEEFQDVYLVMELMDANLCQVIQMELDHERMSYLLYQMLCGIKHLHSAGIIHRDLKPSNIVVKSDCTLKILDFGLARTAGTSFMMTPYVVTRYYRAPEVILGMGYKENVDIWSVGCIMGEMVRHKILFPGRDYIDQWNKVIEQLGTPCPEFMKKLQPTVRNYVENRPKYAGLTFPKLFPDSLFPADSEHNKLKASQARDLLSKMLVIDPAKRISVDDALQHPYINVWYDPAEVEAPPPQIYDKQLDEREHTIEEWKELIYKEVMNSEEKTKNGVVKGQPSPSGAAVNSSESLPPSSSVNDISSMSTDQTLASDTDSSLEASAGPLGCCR

Target: Mitogen-activated protein kinase 10 (Homo sapiens, UniProt P53779)
Assay: Inhibition of JNK3alpha1 (unknown origin) up to 10 uM after 1 hr by homogeneous time-resolved fluorescence assay

inhibition, inactive:
Cc1ccc(NC(=O)c2cccc(-n3cc(NC(=O)NC4CCCC4)cn3)c2)cn1
Cc1ccc(NC(=O)c2cccc(-n3cc(NC(=O)N4CCc5ccccc54)cn3)c2)cn1
Cc1ccc(NC(=O)c2cccc(-n3cc(NC(=O)N(CCO)c4ccccc4Cl)cn3)c2)cn1
Cc1cccc(NC(=O)c2cccc(-n3cc(NC(=O)Nc4ccccc4Cl)cn3)c2)n1

The source made the active and inactive calls. No cut-off for these calls is given here.
